The values that follow come from publication PMC5047057 (Oral oncology, 2016).

For series [1], the system named is platin-resistant, cetuximab-naïve RM HNSCC. The following applies: cetuximab monotherapy; cited from earlier work.
In series [2] the test system is patients with recurrent/metastatic head and neck squamous cell carcinoma (HNSCC). The following applies: in vivo.

Take cetuximab: the Disease control in series [1] is on record as 46%. Also, the Intra-patient dose reductions result in series [2] is given as “did not occur”.
